The values that follow come from patent publication US7374891B2, “Methods to identify compounds that modulate rage” (TransTech Pharma, Inc., priority 2000, dated 2008).

The test system of this test is RAGE (S-100b/RAGE interaction in C6 glioma cells). Kind of test: pNF-κB-Luc luciferase reporter assay in C6 glioma cells expressing high levels of RAGE. Particulars: read-out: IC50, inhibition of S-100b/RAGE interaction in C6 glioma cells; NF-κB luciferase reporter, FIG. 14; tested form: 2HCl. On the technique in general: In a reporter assay the amount or activity of a reporter protein is the signal.

Take `CCCCOc1cc(C(=O)OCCN(CC)CC)ccc1NC(=O)[C@H](N)Cc1ccc2ccccc2c1`: the IC50 was 3.3 µM.
